Data as given in patent publication US8222419B2, “Oxepin derivative” (Nippon Zoki Pharmaceutical Co., Ltd., priority 2006, dated 2012).

The chains behind the UniProt entries cited, without tags or fusion partners.
UniProt P70174, whole entry: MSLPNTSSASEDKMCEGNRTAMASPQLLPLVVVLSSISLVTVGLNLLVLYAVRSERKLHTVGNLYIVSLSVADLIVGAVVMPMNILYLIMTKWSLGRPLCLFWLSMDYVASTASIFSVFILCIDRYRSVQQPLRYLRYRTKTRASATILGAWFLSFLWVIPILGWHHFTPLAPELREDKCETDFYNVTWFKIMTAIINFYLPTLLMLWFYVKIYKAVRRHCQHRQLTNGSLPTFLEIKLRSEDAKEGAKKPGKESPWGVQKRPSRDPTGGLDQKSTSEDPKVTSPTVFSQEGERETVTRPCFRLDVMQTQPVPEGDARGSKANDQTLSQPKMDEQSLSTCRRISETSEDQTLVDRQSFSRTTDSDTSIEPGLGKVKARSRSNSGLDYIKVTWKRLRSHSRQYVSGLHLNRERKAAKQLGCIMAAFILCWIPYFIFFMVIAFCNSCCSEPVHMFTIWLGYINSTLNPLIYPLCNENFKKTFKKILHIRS

Target: T1, H1 receptor (Mus musculus, UniProt P70174)
T1 construct: The excised brain tissue was homogenized with Polytron; from tissue; host or cells: entire brain except cerebellum and medulla oblongata, homogenate
Experiment: Murine intracranial H1 receptor content (ex vivo), 3H-pyrilamine binding in brain homogenate after oral dosing

For `CN1CCC(=C2c3ccccc3CC(=O)c3sccc32)CC1` [Ketotifen, reference compound], the “ID50 (mg/kg)/ED50 (mg/kg)” value (ID50 of intracranial receptor binding test (Table 7) divided by ED50 of histamine-induced vascular hyperpermeability test (Table 6)) was 0.9 and the ED50 (mouse, oral administration, brain excised after 1 hour, 3H-pyrilamine 2 nmol/L binding to brain homogenate, read-out: ID50 (the source's name)) was 0.51 mg/kg.
